According to ChEMBL document CHEMBL4049449, “Discovery of a Novel Class of Survival Motor Neuron 2 Splicing Modifiers for the Treatment of Spinal Muscular Atrophy” (J Med Chem, 2017):

Species on record: Homo sapiens
Assay: Modulation of patient derived full length SMN2 pre mRNA splicing assessed as restoration of functional SMN2 to protein level

SMILES: Cc1cn2cc(-c3cc4ccc(N5CCN(C)CC5)cc4c(=O)o3)nc2c(C)n1
- EC1.5: 120 nM
